{"source": "patent US8633212B2", "about": "“Inhibitors of beta-secretase” (Vitae Pharmaceuticals, Inc., priority 2009, dated 2014)", "target": "ectodomain of BACE (aa 1-454) fused to a myc-his tag, secreted from HEK293/BACEect. cells (Homo sapiens (Human), UniProt P56817)", "assay": "biochemical"}
{"smiles": "CC(C)N1C(=O)C2(N=C1N)c1ccccc1CC21CCc2ccccc2CC1", "note": "(stereo not shown) [Compound 410]", "values": [{"measurement": "IC50", "result": 0.566, "unit": "µM"}]}
